Reference: US7632933B2, “Corticotropin releasing factor 2 receptor agonists” (priority 2002, dated 2009)

Key:
CRF2R = biological target: T1, CRF2R (Homo sapiens, UniProt Q13324); experiment: CRF2R agonist activity (EC50 and Emax), called comparative CRF binding; type: cell-based; conditions: CRF2R EC50 (nM), CRF2R
T1 sequence (Q13324 1-411): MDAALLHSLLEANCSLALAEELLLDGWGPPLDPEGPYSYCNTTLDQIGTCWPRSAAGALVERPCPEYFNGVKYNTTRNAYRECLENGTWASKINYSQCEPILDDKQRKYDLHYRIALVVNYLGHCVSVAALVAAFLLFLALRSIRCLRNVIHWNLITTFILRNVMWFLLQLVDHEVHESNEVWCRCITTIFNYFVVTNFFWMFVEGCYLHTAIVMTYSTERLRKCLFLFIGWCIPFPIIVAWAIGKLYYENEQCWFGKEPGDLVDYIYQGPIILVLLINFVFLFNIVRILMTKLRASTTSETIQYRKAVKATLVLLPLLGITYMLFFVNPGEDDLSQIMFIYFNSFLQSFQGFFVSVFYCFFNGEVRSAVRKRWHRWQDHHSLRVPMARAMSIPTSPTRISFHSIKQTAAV
Procedure, shortened: (§1)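 Functional activity of peptides at each receptor subtype is determined in whole cells by measuring cAMP induction, either directly in lysates or through reporter expression downstream of a cAMP-responsive element, relative to vehicle.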

CRF1R = biological target: T2, CRF1R (Homo sapiens, UniProt P34998); experiment: CRF1R agonist activity (EC50 and Emax), called comparative CRF binding; type: cell-based; conditions: CRF1R EC50 (nM), CRF1R
T2 sequence (P34998 24-415): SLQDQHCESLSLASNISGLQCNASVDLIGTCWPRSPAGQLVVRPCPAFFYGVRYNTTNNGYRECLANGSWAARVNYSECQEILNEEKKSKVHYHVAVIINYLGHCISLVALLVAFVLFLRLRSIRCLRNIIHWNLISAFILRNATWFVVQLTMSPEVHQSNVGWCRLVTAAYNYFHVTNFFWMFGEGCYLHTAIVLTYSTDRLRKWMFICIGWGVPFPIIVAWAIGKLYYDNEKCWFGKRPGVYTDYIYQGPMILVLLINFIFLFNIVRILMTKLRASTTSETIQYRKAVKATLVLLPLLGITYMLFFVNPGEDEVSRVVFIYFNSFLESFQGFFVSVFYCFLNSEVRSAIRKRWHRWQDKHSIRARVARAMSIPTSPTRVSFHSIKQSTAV
Procedure, shortened: as §1

Structure (SMILES): CC[C@H](C)[C@H](NC(=O)[C@@H](NC(=O)[C@H](CC(=O)O)NC(=O)[C@H](CC(C)C)NC(=O)[C@H](CC(C)C)NC(=O)[C@H](CC(C)C)NC(=O)[C@H](CCCNC(=N)N)NC(=O)[C@H](CC(N)=O)NC(=O)[C@H](CC(N)=O)NC(=O)[C@H](C)NC(=O)[C@H](C)NC(=O)[C@H](CCC(N)=O)NC(=O)[C@H](CCC(N)=O)NC(=O)[C@H](CCCCN)NC(=O)[C@H](CCC(=O)O)NC(=O)[C@H](CCCCN)NC(=O)[C@H](CCC(=O)O)NC(=O)[C@H](CCC(N)=O)NC(=O)[C@H](CCCCN)NC(=O)[C@H](CCC(=O)O)NC(=O)[C@@H](NC(=O)[C@H](CCC(=O)O)NC(=O)[C@@H](NC(=O)[C@H](CCSC)NC(=O)[C@H](CCCCN)NC(=O)[C@H](CCCNC(=N)N)NC(=O)[C@H](CC(C)C)NC(=O)[C@H](CC(C)C)NC(=O)[C@@H](NC(=O)[C@H](CC(C)C)NC(=O)[C@@H]1CCCN1C(=O)[C@H](CC(C)C)NC(=O)[C@H](CC(=O)O)NC(=O)[C@@H](NC(=O)[C@H](CO)NC(=O)[C@@H](NC(=O)[C@@H]1CCCN1C(=O)[C@@H]1CCCN1C(=O)CNC(=O)[C@@H]1CCC(=O)N1)[C@@H](C)CC)[C@@H](C)CC)[C@@H](C)CC)[C@@H](C)CC)[C@@H](C)CC)[C@@H](C)O)C(N)=O [compound 194]
- EC50 (CRF2R): 5 nM
- EC50 (CRF1R): 106 nM

Structure (SMILES): CC[C@H](C)[C@H](NC(=O)[C@H](CC(N)=O)NC(=O)[C@H](C)NC(=O)[C@H](CC(C)C)NC(=O)[C@H](CC(C)C)NC(=O)[C@H](CC(N)=O)NC(=O)[C@H](C)NC(=O)[C@H](CC(N)=O)NC(=O)[C@H](CC(N)=O)NC(=O)[C@H](C)NC(=O)[C@H](C)NC(=O)[C@H](CCC(N)=O)NC(=O)[C@H](CCC(N)=O)NC(=O)[C@H](CCCCN)NC(=O)[C@H](CCC(=O)O)NC(=O)[C@H](CCCCN)NC(=O)[C@H](CCC(=O)O)NC(=O)[C@H](CCC(N)=O)NC(=O)[C@H](CCCCN)NC(=O)[C@H](CCC(=O)O)NC(=O)[C@@H](NC(=O)[C@H](CCC(=O)O)NC(=O)[C@@H](NC(=O)[C@@H](NC(=O)[C@H](CCCCN)NC(=O)[C@H](CCCNC(=N)N)NC(=O)[C@H](CC(C)C)NC(=O)[C@H](CC(C)C)NC(=O)[C@H](CCC(N)=O)NC(=O)[C@H](Cc1ccccc1)NC(=O)[C@@H]1CCCN1C(=O)[C@H](CC(C)C)NC(=O)[C@H](CC(=O)O)NC(=O)[C@@H](NC(=O)[C@H](CO)NC(=O)[C@@H](NC(=O)[C@@H]1CCCN1C(=O)[C@@H]1CCCN1C(=O)CNC(=O)[C@@H]1CCC(=O)N1)[C@@H](C)CC)[C@@H](C)CC)C(C)C)[C@@H](C)CC)[C@@H](C)CC)C(N)=O [compound 275]
- EC50 (CRF2R): 46.6 nM
- EC50 (CRF1R): ≥ 1000 nM

Structure (SMILES): CC[C@H](C)[C@H](NC(=O)[C@@H](NC(=O)[C@H](CC(=O)O)NC(=O)[C@H](CC(C)C)NC(=O)[C@H](CC(C)C)NC(=O)[C@H](CC(C)C)NC(=O)[C@H](C)NC(=O)[C@H](CC(N)=O)NC(=O)[C@H](CC(N)=O)NC(=O)[C@H](C)NC(=O)[C@H](C)NC(=O)[C@H](CCC(N)=O)NC(=O)[C@H](CCC(N)=O)NC(=O)[C@H](CCCCN)NC(=O)[C@H](CCC(=O)O)NC(=O)[C@H](CCCCN)NC(=O)[C@H](CCC(=O)O)NC(=O)[C@H](CCC(N)=O)NC(=O)[C@H](CCCCN)NC(=O)[C@H](CCC(=O)O)NC(=O)[C@@H](NC(=O)[C@H](CCC(=O)O)NC(=O)[C@@H](NC(=O)[C@H](CCSC)NC(=O)[C@H](CCCCN)NC(=O)[C@H](CCCNC(=N)N)NC(=O)[C@H](CC(C)C)NC(=O)[C@H](CC(C)C)NC(=O)[C@H](Cc1ccc(O)cc1)NC(=O)[C@H](Cc1ccccc1)NC(=O)[C@@H]1CCCN1C(=O)[C@H](CC(C)C)NC(=O)[C@H](CC(=O)O)NC(=O)[C@@H](NC(=O)[C@H](CO)NC(=O)[C@@H](NC(=O)[C@@H]1CCCN1C(=O)[C@@H]1CCCN1C(=O)CNC(=O)[C@@H]1CCC(=O)N1)[C@@H](C)CC)[C@@H](C)CC)[C@@H](C)CC)[C@@H](C)CC)[C@@H](C)O)C(N)=O [compound 230]
- EC50 (CRF2R): 8.1 nM
- EC50 (CRF1R): 219 nM

Structure (SMILES): CC[C@H](C)[C@H](NC(=O)[C@@H](NC(=O)[C@H](CC(=O)O)NC(=O)[C@H](CC(C)C)NC(=O)[C@H](CC(C)C)NC(=O)[C@H](CC(C)C)NC(=O)[C@H](CCCNC(=N)N)NC(=O)[C@H](CC(N)=O)NC(=O)[C@H](CC(N)=O)NC(=O)[C@H](C)NC(=O)[C@H](C)NC(=O)[C@H](CCC(N)=O)NC(=O)[C@H](CCC(N)=O)NC(=O)[C@H](CCCCN)NC(=O)[C@H](CCC(=O)O)NC(=O)[C@H](CCCCN)NC(=O)[C@H](CCC(=O)O)NC(=O)[C@H](CCC(N)=O)NC(=O)[C@H](CCCCN)NC(=O)[C@H](CCC(=O)O)NC(=O)[C@@H](NC(=O)[C@H](CCC(=O)O)NC(=O)[C@@H](NC(=O)[C@H](CCSC)NC(=O)[C@H](CCCCN)NC(=O)[C@H](CCCNC(=N)N)NC(=O)[C@H](CC(C)C)NC(=O)[C@H](CC(C)C)NC(=O)[C@@H](NC(=O)[C@@H](NC(=O)[C@@H]1CCCN1C(=O)[C@H](CC(C)C)NC(=O)[C@H](CC(=O)O)NC(=O)[C@@H](NC(=O)[C@H](CO)NC(=O)[C@@H](NC(=O)[C@@H]1CCCN1C(=O)[C@@H]1CCCN1C(=O)CNC(=O)[C@@H]1CCC(=O)N1)[C@@H](C)CC)[C@@H](C)CC)[C@@H](C)CC)[C@@H](C)O)[C@@H](C)CC)[C@@H](C)CC)[C@@H](C)O)C(N)=O [compound 24]
- EC50 (CRF2R): 43.2 nM
- EC50 (CRF1R): > 1000 nM

Structure (SMILES): CC[C@H](C)[C@H](NC(=O)[C@H](CCCNC(=N)N)NC(=O)[C@H](C)NC(=O)[C@H](CC(C)C)NC(=O)[C@H](CC(C)C)NC(=O)[C@H](CCCNC(=N)N)NC(=O)[C@H](C)NC(=O)[C@H](CC(N)=O)NC(=O)[C@H](CC(N)=O)NC(=O)[C@H](C)NC(=O)[C@H](C)NC(=O)[C@H](CCC(N)=O)NC(=O)[C@H](CCC(N)=O)NC(=O)[C@H](CCCCN)NC(=O)[C@H](CCC(=O)O)NC(=O)[C@H](CCCCN)NC(=O)[C@H](CCC(=O)O)NC(=O)[C@H](CCC(N)=O)NC(=O)[C@H](CCCCN)NC(=O)[C@H](CCC(=O)O)NC(=O)[C@@H](NC(=O)[C@H](CCC(=O)O)NC(=O)[C@@H](NC(=O)[C@@H](NC(=O)[C@H](CCCCN)NC(=O)[C@H](CCCNC(=N)N)NC(=O)[C@H](CC(C)C)NC(=O)[C@H](CC(C)C)NC(=O)[C@H](Cc1c[nH]c2ccccc12)NC(=O)[C@@H](NC(=O)[C@@H]1CCCN1C(=O)[C@H](CC(C)C)NC(=O)[C@H](CC(=O)O)NC(=O)[C@@H](NC(=O)[C@H](CO)NC(=O)[C@@H](NC(=O)[C@@H]1CCCN1C(=O)[C@@H]1CCCN1C(=O)CNC(=O)[C@@H]1CCC(=O)N1)[C@@H](C)CC)[C@@H](C)CC)[C@@H](C)O)C(C)C)[C@@H](C)CC)[C@@H](C)CC)C(N)=O [compound 291]
- EC50 (CRF2R): ≥ 100 nM
- EC50 (CRF1R): ≥ 1000 nM

Structure (SMILES): CC[C@H](C)[C@H](NC(=O)[C@@H](NC(=O)[C@H](CC(=O)O)NC(=O)[C@H](CC(C)C)NC(=O)[C@H](CC(C)C)NC(=O)[C@H](CC(C)C)NC(=O)[C@H](CCCNC(=N)N)NC(=O)[C@H](CC(N)=O)NC(=O)[C@H](CC(N)=O)NC(=O)[C@H](C)NC(=O)[C@H](C)NC(=O)[C@H](CCC(N)=O)NC(=O)[C@H](CCC(N)=O)NC(=O)[C@H](CCCCN)NC(=O)[C@H](CCC(=O)O)NC(=O)[C@H](CCCCN)NC(=O)[C@H](CCC(=O)O)NC(=O)[C@H](CCC(N)=O)NC(=O)[C@H](CCCCN)NC(=O)[C@H](CCC(=O)O)NC(=O)[C@@H](NC(=O)[C@H](CCC(=O)O)NC(=O)[C@@H](NC(=O)[C@H](CCSC)NC(=O)[C@H](CCCCN)NC(=O)[C@H](CCCNC(=N)N)NC(=O)[C@H](CC(C)C)NC(=O)[C@H](CC(C)C)NC(=O)[C@H](CC(N)=O)NC(=O)[C@@H](NC(=O)[C@@H]1CCCN1C(=O)[C@H](CC(C)C)NC(=O)[C@H](CC(=O)O)NC(=O)[C@@H](NC(=O)[C@H](CO)NC(=O)[C@@H](NC(=O)[C@@H]1CCCN1C(=O)[C@@H]1CCCN1C(=O)CNC(=O)[C@@H]1CCC(=O)N1)[C@@H](C)CC)[C@@H](C)CC)[C@@H](C)CC)[C@@H](C)CC)[C@@H](C)CC)[C@@H](C)O)C(N)=O [compound 37]
- EC50 (CRF2R): > 100 nM
- EC50 (CRF1R): > 1000 nM

Structure (SMILES): CC[C@H](C)[C@H](NC(=O)[C@@H](NC(=O)[C@H](CC(=O)O)NC(=O)[C@H](CC(C)C)NC(=O)[C@H](CC(C)C)NC(=O)[C@H](CC(C)C)NC(=O)[C@H](CCCNC(=N)N)NC(=O)[C@H](CC(N)=O)NC(=O)[C@H](CC(N)=O)NC(=O)[C@H](C)NC(=O)[C@H](C)NC(=O)[C@H](CCC(N)=O)NC(=O)[C@H](CCC(N)=O)NC(=O)[C@H](CCCCN)NC(=O)[C@H](CCC(=O)O)NC(=O)[C@H](CCCCN)NC(=O)[C@H](CCC(=O)O)NC(=O)[C@H](CCC(N)=O)NC(=O)[C@H](CCCCN)NC(=O)[C@H](CCC(=O)O)NC(=O)[C@@H](NC(=O)[C@H](CCC(=O)O)NC(=O)[C@@H](NC(=O)[C@H](CCSC)NC(=O)[C@H](CCCCN)NC(=O)[C@H](CCCNC(=N)N)NC(=O)[C@H](CC(C)C)NC(=O)[C@H](CC(C)C)NC(=O)[C@H](CCC(N)=O)NC(=O)[C@@H](NC(=O)[C@@H]1CCCN1C(=O)[C@H](CC(C)C)NC(=O)[C@H](CC(=O)O)NC(=O)[C@@H](NC(=O)[C@H](CO)NC(=O)[C@@H](NC(=O)[C@@H]1CCCN1C(=O)[C@@H]1CCCN1C(=O)CNC(=O)[C@@H]1CCC(=O)N1)[C@@H](C)CC)[C@@H](C)CC)[C@@H](C)O)[C@@H](C)CC)[C@@H](C)CC)[C@@H](C)O)C(N)=O [compound 72]
- EC50 (CRF2R): > 100 nM
- EC50 (CRF1R): > 100 nM
